Results reported in patent US8415376B2, “Inhibitors of PI3 kinase” (Amgen Inc., priority 2008, dated 2013).

By UniProt entry, the sequences of proteins in these tests, tags left out.
UniProt P42336, whole entry: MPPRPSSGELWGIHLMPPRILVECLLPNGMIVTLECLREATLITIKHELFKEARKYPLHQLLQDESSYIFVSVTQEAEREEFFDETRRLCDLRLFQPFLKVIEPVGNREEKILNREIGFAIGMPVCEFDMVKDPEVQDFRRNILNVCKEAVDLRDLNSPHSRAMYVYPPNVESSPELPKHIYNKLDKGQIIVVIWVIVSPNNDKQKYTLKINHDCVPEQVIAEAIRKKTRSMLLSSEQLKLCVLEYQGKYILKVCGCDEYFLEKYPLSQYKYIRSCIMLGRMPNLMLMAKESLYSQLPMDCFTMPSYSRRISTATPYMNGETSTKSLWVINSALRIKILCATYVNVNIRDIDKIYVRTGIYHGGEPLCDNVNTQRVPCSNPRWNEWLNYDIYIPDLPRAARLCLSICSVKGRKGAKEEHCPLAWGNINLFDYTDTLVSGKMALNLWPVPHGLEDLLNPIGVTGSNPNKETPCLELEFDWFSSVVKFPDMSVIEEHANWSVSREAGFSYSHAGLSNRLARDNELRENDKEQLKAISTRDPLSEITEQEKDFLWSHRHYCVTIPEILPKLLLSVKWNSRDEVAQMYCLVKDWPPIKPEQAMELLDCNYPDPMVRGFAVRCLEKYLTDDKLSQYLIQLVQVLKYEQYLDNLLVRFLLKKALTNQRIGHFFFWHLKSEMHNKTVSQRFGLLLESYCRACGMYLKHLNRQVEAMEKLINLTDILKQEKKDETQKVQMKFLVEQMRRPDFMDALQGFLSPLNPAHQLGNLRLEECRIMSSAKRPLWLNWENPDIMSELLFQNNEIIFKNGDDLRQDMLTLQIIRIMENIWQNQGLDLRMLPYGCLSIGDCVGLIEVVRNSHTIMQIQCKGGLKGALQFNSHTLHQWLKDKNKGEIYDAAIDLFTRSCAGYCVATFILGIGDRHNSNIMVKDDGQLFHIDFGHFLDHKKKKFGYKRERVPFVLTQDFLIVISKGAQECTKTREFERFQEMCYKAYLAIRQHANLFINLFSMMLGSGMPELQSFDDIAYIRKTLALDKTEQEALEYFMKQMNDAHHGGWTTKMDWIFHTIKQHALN

Experiments:
PI3Kα [1] = target: T1, PI3Kα (Homo sapiens, UniProt P42336); experiment: In vitro PI3 kinase enzyme assay (PI3K ATP loss), alpha; assay type: biochemical; settings: average if run more than once; read-out: ATP Loss (PBKα) IC50 μM (Avg)
T1 construct: Full length p110 subunits of PI3K α, β and δ, N-terminally labeled with polyHis tag; polyHis (N); made in house; host or cells: Sf9 insect cells (baculovirus)

PI3Kα [2] = target: T1, PI3Kα; experiment: In vitro PI3K AlphaScreen assay; assay type: biochemical; settings: average if run more than once

Structure (SMILES) | IC50 (PI3Kα [1]) [µM] | Ki (PI3Kα [2]) [µM]
O=S(=O)(Nc1cc(-c2ccc3nccc(N4CCN(Cc5ccncc5)CC4)c3c2)cnc1Cl)c1ccc(F)cc1 [Example 89, N-(2-chloro-5-(4-(4-(4-pyridinylmethyl)-1-piperazinyl)-6-quinolinyl)-3-pyridinyl)-4-fluorobenzenesulfonamide] | – | 0.0025
CN(C)c1ccnc2ccc(-c3cnc(Cl)c(NS(=O)(=O)c4ccc(F)cc4)c3)cc12 [Example 97, N-(2-chloro-5-(4-(dimethylamino)-6-quinolinyl)-3-pyridinyl)-4-fluorobenzenesulfonamide] | – | 0.0086
COCCNc1ccnc2ccc(-c3cnc(Cl)c(NS(=O)(=O)c4ccc(F)cc4)c3)cc12 [Example 98, N-(2-chloro-5-(4-((2-methoxyethyl)amino)-6-quinolinyl)-3-pyridinyl)-4-fluorobenzenesulfonamide] | – | 0.0889

The next lines start with results.

IC50 (PI3Kα [1]) [µM] | Structure (SMILES) | Ki (PI3Kα [2]) [µM]
0.0062 | O=S(=O)(Nc1cc(-c2ccc3nccc(Cl)c3c2)cnc1Cl)c1ccc(F)cc1 [Example 2, N-(2-chloro-5-(4-chloro-6-quinolinyl)-3-pyridinyl)-4-fluorobenzenesulfonamide] | –
0.0075 | COCCOc1ccnc2ccc(-c3cnc(Cl)c(NS(=O)(=O)c4ccc(F)cc4)c3)cc12 [Example 31, N-(2-chloro-5-(4-(2-methoxyethoxy)-6-quinolinyl)-3-pyridinyl)-4-fluorobenzenesulfonamide] | –
0.0077 | COc1ncccc1-c1ccnc2ccc(-c3cnc(Cl)c(NS(=O)(=O)c4ccc(F)cc4)c3)cc12 [Example 35, N-(2-chloro-5-(4-(2-methoxy-3-pyridinyl)-6-quinolinyl)-3-pyridinyl)-4-fluorobenzenesulfonamide] | –
